# Rows were chosen to be rich in hits. Some 4.2% of all compounds tested hit in one or more screens of this group.
# ALR H2O2 inh – inhibitors of human ALR sulfhydryl oxidase, primary screen, biochemical, H2O2 detection, HRP-luminol luminescence, single point; purified ALR, DTT oxidation; inhibition, % (no concentration beside the values); 290,000 tested, 3.8% active;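 active = mean and each replicate at 75% or more; inconclusive = only one of the two met; inactive = neither met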;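 also: stock transfer was 7.5 nL into about 7.5 µL; 0% = neutral wells and 100% = wells with inactivated enzyme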
# MC4R antag cAMP – antagonists of human melanocortin 4 receptor (MC4R); MC4R-expressing cells, MTII-stimulated cAMP, LANCE TR-FRET; inhibition, % at 6.5 µM; 360,000 tested, 0.48% active;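 active = inhibition above its plate's cutoff, the mean of tested wells on that plate plus 3 SD, cut at about 29% in these data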;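 note: 0% = Melanotan II alone and 100% = Melanotan II plus saturating MCL0020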
#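 Assay system: U2OS-MC4R stable cell line; Also added: Melanotan II; Technique: Eu-cAMP/anti-cAMP TR-FRET, emission 671 nm; Times: 30-min compound, 1-h challenge, 1-h detection, room temperature.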
# MC4R barr agon – agonists of human melanocortin 4 receptor (MC4R) beta-arrestin; U2OS MC4R beta-arrestin complementation, luminescence; percent of melanotan II response, DMSO zero; activation, % at 8.9 µM; 360,000 tested, 0.98% active;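 active = activation above a per-plate cutoff, the mean activation of sample wells on that plate plus 3 SD, cut at about 8% in these data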
# Yeast UUG start – yeast start codon fidelity modulation; AID 602363; activity score, % at 18.7 µM; S. cerevisiae UUG-firefly luciferase reporter, luminescence/redox ratio; 0.13% of 350,000 active;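 active means replicate mean at a twofold rise or more, about +100% in these data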;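 further: firefly luciferase made from a UUG start codon reports start codon fidelity; reporter light over untreated wells divided by growth signal over untreated wells; some hits fall short of that in this replicate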
# NALP1 yeast inh – blocks the NALP1 inflammasome reconstituted in yeast; S. cerevisiae NALP1/ASC/caspase-1 growth, X-gal OD620, 72 h; inhibition, % at 10 µM; 280,000 tested, 0.61% active; AID 2071; in the data active = inhibition mostly above about 24%, no sharp cut-off; inactive = mostly below about 32%
# HDAC3 inh – blocks human histone deacetylase 3; O15379; recombinant HDAC3, fluorogenic peptide/trypsin coupled, fluorescence; inhibition, % at 8.3 µM; 320,000 tested, 0.15% active; in the data active = inhibition above about 26%, passing the limit was not always enough; inconclusive = no clear call, values can overlap the other calls
# Starred values were filed as active, the others as inactive; ? = inconclusive; / = no result given.
# Values in the order – ALR H2O2 inh	MC4R antag cAMP	MC4R barr agon	Yeast UUG start	NALP1 yeast inh	HDAC3 inh
O=S(=O)(N[C@@H]1CC[C@@H](CCn2cc(C3(O)CCCC3)nn2)O[C@H]1CO)c1ccc(Cl)cc1
  /	/	/	-4.0	/	/
Cc1ccc(S(=O)(=O)N(C)C[C@@H]2Oc3ccc(NC(=O)CCCCCC(=O)Nc4ccccc4N)cc3CC(=O)N([C@H](C)CO)C[C@@H]2C)cc1
  /	/	/	-1.6	/	/
Cc1c(Br)cnn1C(C)C(=O)N1CCN(c2ccc(F)cc2)CC1 (stereo not given)
  94.0*	10.4	3.0	-8.7	/	-4.4
C[C@H](CO)N1C[C@H](C)[C@@H](CN(C)S(C)(=O)=O)Oc2ncc(C3=CCCC3)cc2C1=O
  /	/	/	-5.6	/	/
O=C(Nc1ccccc1)N1N=C(c2cccs2)CC1c1cccs1 (stereo not given)
  0.8	-1.0	0.9	/	36.0	-2.2
O=C(c1ccccc1)N1N=C(c2cccs2)CC1c1ccccc1O (stereo not given)
  3.1	-1.2	8.4*	10.2	-3.1	15.5
CCOC(=O)N1CCC(NC(=O)CS(=O)Cc2nc(-c3ccccc3C)oc2C)CC1 (stereo not given)
  99.1*	1.2	-1.1	-1.4	23.5	-2.5
Cc1oc(-c2ccccc2F)nc1CS(=O)CC(=O)NC1CC1 (stereo not given)
  99.3*	3.5	-2.9	/	13.5	0.0
Cc1oc(-c2ccccc2F)nc1CS(=O)CC(=O)NC1CCCCC1 (stereo not given)
  97.6*	5.0	-0.3	2.8	18.7	/
CCC#CCN(Cc1ccccc1Br)[C@H](/C=C/c1ccccc1)[C@@H](O)Cc1ccccc1
  /	/	/	-2.0	/	/
CN(C)CCCNC(=O)C[C@H]1CC[C@H](NS(=O)(=O)c2ccccc2)[C@@H](CO)O1
  /	/	/	-12.0	/	/
CO[C@@H]1CN(C)C(=O)c2cc(NS(=O)(=O)c3ccc(C)cc3)ccc2OC[C@H](C)N(C)C[C@H]1C
  /	/	/	5.7	/	/
O=C(Nc1cccc(F)c1)OC(CN1CCCCC1)C(F)(F)F (stereo not given)
  -5.3	-1.0	-0.6	-16.5	-2.2	7.9
O=C(Nc1ccc(Cl)cc1)OC(CN1CCCCC1)C(F)(F)F (stereo not given)
  3.7	0.0	6.2	-1.9	25.0*	13.6
C[C@@H]1CCCCO[C@H](CN(C)C(=O)Nc2ccccc2)[C@H](C)CN([C@H](C)CO)C(=O)c2cc(NS(=O)(=O)c3cccs3)ccc2O1
  /	/	/	-5.2	/	/
CCOC(=O)C1CCCN(C2CC(=O)N(c3cccc(C(F)(F)F)c3)C2=O)C1 (stereo not given)
  2.4	-6.6	0.4	-17.8	59.3*	5.4
S=c1[nH]ncn1NCc1ccc(Cl)cc1Cl
  88.6*	26.3	0.6	/	1.9	-2.7
Fc1cccc(Cl)c1CNn1cn[nH]c1=S
  82.5*	4.8	1.4	/	-7.5	0.5
COc1cc(CNn2cn[nH]c2=S)cc(Cl)c1OCc1ccc(F)cc1
  97.4*	24.7	1.1	/	24.1	3.5
C=CCOc1ccc(CNn2cn[nH]c2=S)cc1OC
  -21.8	1.5	-1.4	/	9.0	0.1

# 3 entries from above, set out differently:
> O=C(Nc1cccc(F)c1)OC(CN1CCCCC1)C(F)(F)F (stereo not given)
  ALR H2O2 inh: -5.3	MC4R antag cAMP: -1.0	MC4R barr agon: -0.6	Yeast UUG start: -16.5	NALP1 yeast inh: -2.2	HDAC3 inh: 7.9
> C=CCOc1ccc(CNn2cn[nH]c2=S)cc1OC
  ALR H2O2 inh: -21.8	MC4R antag cAMP: 1.5	MC4R barr agon: -1.4	Yeast UUG start: /	NALP1 yeast inh: 9.0	HDAC3 inh: 0.1
> C[C@H](CO)N1C[C@H](C)[C@@H](CN(C)S(C)(=O)=O)Oc2ncc(C3=CCCC3)cc2C1=O
  ALR H2O2 inh: /	MC4R antag cAMP: /	MC4R barr agon: /	Yeast UUG start: -5.6	NALP1 yeast inh: /	HDAC3 inh: /

# Additional results.
mol	ALR H2O2 inh	MC4R antag cAMP	MC4R barr agon	Yeast UUG start	NALP1 yeast inh	HDAC3 inh
O=C(NCC[C@@H]1CC[C@H](NC(=O)c2ccc3c(c2)OCO3)[C@H](CO)O1)Nc1ccc(Cl)cc1	/	/	/	12.8	/	/
CCCNC(=O)C[C@H]1CC[C@H]2[C@@H](COC[C@@H](O)CN2C(=O)Nc2c(C)noc2C)O1	/	/	/	3.1	/	/
CCS(=O)(=O)N[C@@H]1C=C[C@H](CC(=O)NC2Cc3ccccc3C2)O[C@H]1CO	/	/	/	-7.5	/	/
CC(C)C(=O)Nc1ccc2c(c1)C(=O)N(C)[C@H]1CC[C@@H](CC(=O)NCCCN(C)C)O[C@@H]1CO2	/	/	/	-9.8	/	/
COc1ccc(NC(=O)c2nnn(CC(=O)Nc3ccccc3OC)c2N)c(OC)c1	0.4	-0.7	5.5	-34.3	6.9	?
CCc1ccc(Cn2nnc(C(=O)Nc3ccc(OC)cc3OC)c2N)cc1	/	-8.3	-0.2	-14.9	44.7*	-3.0
CC/C(=N\NS(C)(=O)=O)c1ccccc1	3.6	/	/	/	43.8*	-1.0
CC/C(=N\NC(=O)Nc1ccccc1)c1ccccc1	-2.8	-3.6	-0.6	-11.7	12.8	-2.1
COCC(=O)N1C[C@H]2[C@@H](c3ccccc31)[C@H](CO)N2C(=O)Nc1ccccc1Cl	/	/	/	-1.2	/	/
COc1ccc(CN2C(=O)[C@@H]3C(c4ccc(F)cc4)=NO[C@@H]3C2=O)cc1	98.7*	4.5	-1.4	-7.9	37.0	-3.9
